The target in series [1] is T1, γ-secretase (Homo sapiens, UniProt P49768). The series can be described thus: In vitro γ-secretase activity assay, Aβ40 production (ECL). Conditions: read-out: in vitro IC50 against Aβ40. How it is done: (§1) FIG. 2. In vitro characterization of coumarin-dimer allosteric GSIs against various γ-secretase cleavage products. The potency of 7 unique coumarin-based γ-secretase inhibitors were evaluated for efficacy against γ-secretase-mediated production of Aβ40, Aβ42, Aβ38, and Notch. Additionally, the pan-GSI Compound E was also examined in these assays. The IC50 values were calculated from the dose response curves using a non-linear regression analysis in Prism software. IC50 values are presented with standard deviation (n=3 for each data point). […] Ruthenylated antibodies that detected the -40, -42, or -38 cleavage site were incorporated to detect proteolysis indicative of γ-secretase activity. […] Electrochemiluminescence was quantified on an Analyzer (BioVeris). […]
The assay protocol employed was a modified version of that described in Li et al., 2000, Proc. Nat'l Acad. Sci. USA 97:6183-643, incorporated herein by reference. […] The products were detected with various antibody combinations using electrochemiluminescence (ECL) technology as previously described in Li et al., 2000, Proc. Nat'l Acad. Sci. USA 97:6183-643; Lai et al., 2003, J. Biol. Chem. 278: 22475-22481; and Yin et al., 2007, J. Biol. Chem. 282:23639-23644. The amount of product was determined using synthetic peptide or recombinant standards. […]

Series [2] deals with T1, γ-secretase. The series is described as follows: In vitro γ-secretase activity assay, Aβ42 production (ECL). The note with it: read-out: in vitro IC50 against Aβ42.
Series [3] addresses T1, γ-secretase. The series is described as follows: In vitro γ-secretase activity assay, Aβ38 production (ECL). The note with it: read-out: in vitro IC50 against Aβ38.
Series [4] has as its target T1, γ-secretase. The series can be described thus: In vitro γ-secretase assay detecting Notch cleavage (Notch1-TM substrate, SM320 antibody). The note with it: read-out: in vitro IC50 against Notch. How it is done:
as §1
The in vitro γ-secretase assay detecting Notch cleavage was similar to the assays described above, however there were a few notable differences. […] Cleaved product was detected using the affinity polyclonal anti-NICD-1 antibody (SM320), which recognizes the cleaved product and not the substrate, as well as a ruthenylated secondary anti-rabbit antibody. The sample was then similarly incubated with magnetic streptavidin beads and quantified by measuring electrochemiluminescence.

For series [5], the system named is γ-secretase from mouse brain membrane. The series is described as follows: In vitro γ-secretase assay with mouse brain membrane. From the text: (§2) To discover selective GSIs, we screened large collections of small molecules (˜200,000 compounds) at the Sloan-Kettering Institute High Throughput Screening (HTS) Core Facility. Our HTS approach uncovered several novel classes of GSIs as well as currently established scaffolds. […] In our multiple in vitro assays, both compounds selectively abrogated Aβ42 production over Aβ40 (FIG. 2) by approximately 3.5-fold. […] Clearly, these compounds could represent a novel class of inhibitors that selectively target Aβ42 production. […] The predominant trend for this family of compounds was increased potency against Aβ42 over Aβ40, Aβ38, or Notch. […] Lastly, we also determined the inhibitory potency of CS-1 against cell membrane prepared from cells that stably express the PS1-M146L familial mutation (16). […]
(§3) Cell membranes and solubilized γ-secretase were prepared as described previously (36). […] Cleaved product was detected using ruthenylated antibodies that recognize specific APP cleavage sites (Aβ31-38*, G2-10*, or G2-11* antibody for Aβ38, Aβ40, or Aβ42 respectively). The Km and Vmax in the presence and absence of γ-secretase inhibitors were analyzed by non-linear curve fit using the software SigmaPlot 8.0 with the Michaelis-Menten equation (v=Vm [S]/(Km+[S]; v: initial rate; Vm: maximum velocity; Km: the Michaelis-Menten constant, S: substrate).

In series [6] the target is γ-secretase, cell membrane from cells that stably express the PS1-M146L familial mutation (Homo sapiens, UniProt P49768, M146L). The series can be described thus: In vitro γ-secretase assay with membrane of cells expressing PS1-M146L.
Excerpt: as §2, §3

Series [7] deals with N2a mouse neuroblastoma cells that stably express Swedish-mutated APP. The series can be described thus: Cell-based assay of secreted Aβ42, Aβ40, Aβ38 in APPsw-N2A cells. The note with it: read-out: EC50 for inhibition of Aβ42 production, 24 hrs at 37° C. As for the experimental part:
FIG. 3. Cellular evaluation of the coumarin-dimer CS-1 and its selective inhibition of Aβ42. Compounds were incubated with the APPsw-N2A mouse neuroblastoma cells for 24 hours and media were analyzed by biotinylated 4G8 and ruthenylated antibodies specific for each respective cleavage product. (a) CS-1 preferentially abrogates Aβ42 production with no effect on Aβ40 or Aβ38. […] (c) The GSM indomethacin reduces Aβ42 production, potently increases Aβ38, and has little effect on Aβ40. (d) Immunoprecipitation mass spectrometry analysis of CS-1 effect on secreted β-amyloid species. Aβ peptides were immunoprecipitated using 4G8 antibody and isolated with Protein G+/A agarose beads. Samples were analyzed by MALDI-MS. Samples shown are representative and each data point was performed in triplicate. (e) Cell-based Notch cleavage assay. HEK-293 cells were transfected with ΔE Notch construct and then Compound E and CS-1 were evaluated for their ability to inhibit γ-secretase-mediated Notch intracellular domain production. […] The generated AICD and APP-CTFs were detected by Western Blotting using APPc antibody. […]
Cell membranes and solubilized γ-secretase were prepared as described previously (36). […] Cleaved product was detected using ruthenylated antibodies that recognize specific APP cleavage sites (Aβ31-38*, G2-10*, or G2-11* antibody for Aβ38, Aβ40, or Aβ42 respectively). […]

Series [8] has as its system cell viability. The series can be described thus: Cytotoxicity study using Alamar Blue. Conditions: up to 30 μM. How it is done:
We next set out to determine if the selective inhibition of Aβ42 was maintained in a cell-based system for APP processing. First, we compared our lead compound CS-1 (FIG. 3a) to Compound E (FIG. 3b) and the GSM compound indomethacin (FIG. 3c). N2a mouse neuroblastoma cells that stably express Swedish-mutated APP substrate were treated with the indicated compounds for 24 hrs at 37° C. Following 24 hr incubation period, the medium was collected from the cells and assayed for secreted Aβ42, Aβ40, and Aβ38. CS-1 inhibited Aβ42 production with an EC50 of approximately 3 μM in our cell-based assay, yet had virtually no effect on Aβ38 or Aβ40 production up to 30 μM (FIG. 3a). Furthermore, cytotoxicity studies using Alamar Blue indicated CS-1 had little to no effect on cell viability up to 30 μM (data not shown). […] The result for indomethacin mirrored those findings by Kukar et al. whereby a different cell-based system was utilized (17), further validating our assay system for analysis of these Aβ species. […] This may reflect subtle variations between the cellular and in vitro conformations of γ-secretase. Nevertheless, the cell-based studies confirmed that CS-1 maintains a preference for inhibition of the γ-secretase mediated production of Aβ42 over Aβ40 or Aβ38, which is distinct to previously reported GSMs (17) and inhibitors (14-15, 18).
(Alamar Blue is a resazurin reagent that responds to reducing activity.)

In series [9] the test system is N2A mouse neuroblastoma cells overexpressing APP Swedish mutation. The series can be described thus: IP-MS analysis of β-amyloid peptides from cell media. The note with it: N2A APPsw conditioned media, MALDI-MS. As for the experimental part:
FIG. 3. Cellular evaluation of the coumarin-dimer CS-1 and its selective inhibition of Aβ42. Compounds were incubated with the APPsw-N2A mouse neuroblastoma cells for 24 hours and media were analyzed by biotinylated 4G8 and ruthenylated antibodies specific for each respective cleavage product. (a) CS-1 preferentially abrogates Aβ42 production with no effect on Aβ40 or Aβ38. […] (c) The GSM indomethacin reduces Aβ42 production, potently increases Aβ38, and has little effect on Aβ40. (d) Immunoprecipitation mass spectrometry analysis of CS-1 effect on secreted β-amyloid species. Aβ peptides were immunoprecipitated using 4G8 antibody and isolated with Protein G+/A agarose beads. Samples were analyzed by MALDI-MS. Samples shown are representative and each data point was performed in triplicate. (e) Cell-based Notch cleavage assay. HEK-293 cells were transfected with ΔE Notch construct and then Compound E and CS-1 were evaluated for their ability to inhibit γ-secretase-mediated Notch intracellular domain production. […] Western blot is representative and was performed in triplicate. (f) Effect of CS-1 on AICD production. N2A APPsw cell membrane was prepared and incubated with the indicated concentrations of CS-1 at 37° C. for 2 hours. The generated AICD and APP-CTFs were detected by Western Blotting using APPc antibody. Western blot is representative and was performed in triplicate.
We next set out to determine if the selective inhibition of Aβ42 was maintained in a cell-based system for APP processing. First, we compared our lead compound CS-1 (FIG. 3a) to Compound E (FIG. 3b) and the GSM compound indomethacin (FIG. 3c). […]
Aβ peptide profiles were analyzed by immunoprecipitation/mass spectrometry (37). […] The molecular masses of immunoprecipitated Aβ species were measured using a Voyager-DE STR matrix assisted laser desorption ionization time-of-flight mass spectrometer (Applied Biosystems). […] Peaks corresponding to Aβ peptides were identified using the measured molecular masses searching against human Aβ peptide.

For series [10], the target named is γ-secretase (Mus musculus, UniProt P49769). The series can be described thus: AICD generation assay with N2A APPsw cell membrane. Conditions: read-out: IC50 on AICD production, 37° C. for 2 hours. How it is done:
FIG. 3. Cellular evaluation of the coumarin-dimer CS-1 and its selective inhibition of Aβ42. Compounds were incubated with the APPsw-N2A mouse neuroblastoma cells for 24 hours and media were analyzed by biotinylated 4G8 and ruthenylated antibodies specific for each respective cleavage product. (a) CS-1 preferentially abrogates Aβ42 production with no effect on Aβ40 or Aβ38. […] (c) The GSM indomethacin reduces Aβ42 production, potently increases Aβ38, and has little effect on Aβ40. (d) Immunoprecipitation mass spectrometry analysis of CS-1 effect on secreted β-amyloid species. Aβ peptides were immunoprecipitated using 4G8 antibody and isolated with Protein G+/A agarose beads. Samples were analyzed by MALDI-MS. Samples shown are representative and each data point was performed in triplicate. (e) Cell-based Notch cleavage assay. HEK-293 cells were transfected with ΔE Notch construct and then Compound E and CS-1 were evaluated for their ability to inhibit γ-secretase-mediated Notch intracellular domain production. […] Western blot is representative and was performed in triplicate. (f) Effect of CS-1 on AICD production. […] The generated AICD and APP-CTFs were detected by Western Blotting using APPc antibody. […]
We next determined the ability of CS-1 to suppress cellular γ-secretase activity for Notch1 cleavage. […]

Series [11] deals with T1, γ-secretase. The series is described as follows: Inhibition kinetic analysis in the in vitro γ-secretase activity assay. The note with it: APP-transmembrane domain substrate. As for the experimental part: FIG. 4. Kinetic analysis of allosteric GSIs and evaluation of their effect on the γ-secretase active site architecture. (a) Kinetic analysis of CS1 was performed using our modified version of a previously reported in vitro γ-secretase activity assay. The inhibition kinetics were analyzed by using a non-linear curve fit with the Michaelis-Menten equation. Upper right inset: we replotted slopes against the inhibitor concentrations after performing double reciprocal conversion. (b) Schematic representation of the allosteric binding of the di-coumarin compounds to γ-secretase. This binding ultimately causes an alteration at the active site of γ-secretase. Black rectangle represents the coumarin-dimer compound. (c) The binding of L458 to the active site of γ-secretase and its interaction at various subpockets within the enzyme. […]
as §3

Like-named read-outs stand apart in the source and are kept apart here.

As a reminder, the IC50 is the concentration that inhibits the measured activity by half. The EC50 is the concentration giving half of the maximal effect.

As to `O=c1oc2ccccc2c(O)c1C(c1cc(F)c(F)c(F)c1)c1c(O)c2ccccc2oc1=O` [Compound 37], the IC50 in series [1] came to 310 nM; in series [2], 70 nM; in series [3], 710 nM; in series [4], 1770 nM; in series [5] (read-out: IC50 Aβ40) it was 380 nM; in series [5] (read-out: IC50 Aβ42), 112 nM. Also, the values for the IC50 in [6] (read-out: IC50 Aβ40), in series [6] (read-out: IC50 Aβ42) and in [10] were 167 nM, 206 nM and over 10 µM, respectively. For the same molecule, the EC50 in series [7] turned out to be 3000 nM. For the same molecule, the “effect on cell viability” value in [8] is “little to no effect”. Besides, the “effect on secreted Aβ38 by IP-MS” value in series [9] was “largely intact”. Further, the “effect on secreted Aβ40 by IP-MS” value in series [9] is given as “largely intact”. In series [9], the “effect on secreted Aβ42 by IP-MS” value was “inhibit”. Further, the “mode of inhibition against APP-TM substrate” value in series [11] is “non-competitive inhibition”.
